In US20070054899A1 (priority 2003, published 2007) one finds IC50 data, which are given here for one compound.

By UniProt entry, the sequences of proteins in these tests, tags left out. Where a name states a change or a piece, a line headed by the entry shows the natural chain unless it says otherwise.
UniProt O46512: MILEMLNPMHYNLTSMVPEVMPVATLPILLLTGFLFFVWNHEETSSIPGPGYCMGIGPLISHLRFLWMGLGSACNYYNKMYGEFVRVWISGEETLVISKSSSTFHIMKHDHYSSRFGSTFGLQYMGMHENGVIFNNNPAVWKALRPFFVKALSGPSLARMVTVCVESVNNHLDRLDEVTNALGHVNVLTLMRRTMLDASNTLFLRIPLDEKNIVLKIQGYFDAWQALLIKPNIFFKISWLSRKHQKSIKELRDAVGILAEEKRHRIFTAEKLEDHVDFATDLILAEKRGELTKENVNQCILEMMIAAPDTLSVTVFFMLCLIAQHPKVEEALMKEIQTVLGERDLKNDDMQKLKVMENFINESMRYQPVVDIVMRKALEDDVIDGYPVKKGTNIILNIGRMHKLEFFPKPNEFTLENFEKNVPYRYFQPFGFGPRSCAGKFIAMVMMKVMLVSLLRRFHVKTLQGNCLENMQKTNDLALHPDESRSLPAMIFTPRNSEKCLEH

In the experiment the target is aromatase (e) (UniProt O46512). Format: biochemical. To be noted: read-out: Activity In vitro IC50(nM), (e). The procedure:
The IC50, concentrations inhibiting 50% of the activity of the enzyme, were determined using microsomes from the human placenta as source of the enzyme according to the tritiated water method described by PURBA et al (1990).

As a reminder, the IC50 is the concentration needed to halve the response being measured.

On to `N#Cc1ccc(C2CCCc3cncn32)cc1` (stereo not shown) [(s)-Fadrozole, reference compound], for which the IC50 was 260 nM.
